Here are results for 1 compound from patent US9056876B2, “Substituted 1H-pyrazolo[3′,4′,4,5]thieno[2,3-b]pyridin-3-amine analogs as positive allosteric modulators of the muscarinic acetylcholine receptor M4” (VANDERBILT UNIVERSITY, priority 2011, dated 2015).

By UniProt entry, the sequences of proteins in these tests, tags left out.
UniProt P08173, whole entry: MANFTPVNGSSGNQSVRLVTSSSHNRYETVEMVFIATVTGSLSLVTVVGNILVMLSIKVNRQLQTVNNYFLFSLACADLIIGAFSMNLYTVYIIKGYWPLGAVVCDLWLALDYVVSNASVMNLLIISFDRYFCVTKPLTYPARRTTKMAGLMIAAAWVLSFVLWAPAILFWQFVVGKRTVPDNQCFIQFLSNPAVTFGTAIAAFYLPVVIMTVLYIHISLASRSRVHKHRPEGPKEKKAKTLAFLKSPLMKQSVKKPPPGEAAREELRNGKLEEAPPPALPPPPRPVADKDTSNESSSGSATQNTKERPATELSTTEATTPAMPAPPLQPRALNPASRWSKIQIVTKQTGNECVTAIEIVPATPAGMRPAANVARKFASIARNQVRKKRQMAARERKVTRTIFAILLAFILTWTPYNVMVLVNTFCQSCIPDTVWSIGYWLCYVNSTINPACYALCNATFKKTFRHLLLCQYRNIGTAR

For the experiment, the target named is mAChR M4 (UniProt P08173). As to the kind of experiment: mAChR M4 cell-based functional assay (calcium mobilization, Fluo-4, FDSS). The source says: Chinese hamster ovary (CHO-K1) cells stably expressing rat (r)M1 were purchased from the American Type Culture Collection and cultured according to their indicated protocol. CHO cells stably expressing human (h)M2, hM3, and hM5 were described previously (Levey A I, et al., (1991) J Neurosci 11:3218-3226.); hM1 and hM4 cDNAs were purchased from Missouri S&T cDNA Resource; rM4 cDNA was provided by T. I. Bonner (National Institutes of Health, Bethesda, Md.). rM2 and rM3 were cloned from a rat brain cDNA library and sequence verified. hM1, rM2, rM3, hM4, and rM4 cDNAs were used to stably transfect CHO-K1 cells purchased from the American Type Culture Collection using Lipofectamine-2000. To make stable rM2, hM2, rM3, hM4, and rM4 cell lines for use in calcium mobilization assays, these cells also were stably transfected with a chimeric G-protein (Gqi5) (provided by B. R. Conklin, University of California, San Francisco) using Lipofectamine 2000. rM1, hM1, rM3, hM3, rM5, and hM5 cells were grown in Ham's F-12 medium containing 10% heat-inactivated fetal bovine serum (FBS), 20 mM HEPES, and 50 µg/mL G418 sulfate. rM2-Gqi5, hM2-Gqi5, and hM4-Gqi5 cells were grown in the same medium also containing 500 µg/mL Hygromycin B. Stable rM4-Gqi5 cells were grown in DMEM containing 10% heat-inactivated FBS, 20 mM HEPES, 400 µg/mL G418 sulfate, and 500 µg/mL Hygromycin B. […]
Calcium flux was measured using the Functional Drug Screening System (FDSS) 6000 (Hamamatsu Corporation, Tokyo, Japan) as an increase in the fluorescent static ratio. […] Agonist activity was analyzed as a concentration-dependent increase in calcium mobilization upon compound addition. Positive allosteric modulator activity was analyzed as a concentration-dependent increase in the EC20 acetylcholine response. Antagonist activity was analyzed as a concentration-dependent decrease in the EC80 acetylcholine response. […]

Consider `Cc1cc(C)c2c(n1)sc1c(NCC(C)C)nn(C)c12`, for which the “Emax (%)*” value (% ACh maximum at 30 μM) is listed as 70%. For the same compound, the negative-log EC50 (pEC50) (positive allosteric modulator activity, EC20 acetylcholine response, CHO-K1 cells) came out at 6.26. In addition, for the setting “positive allosteric modulator activity: concentration-dependent increase in the EC20 acetylcholine response, CHO-K1 cells, >10 μM estimated for low potency (no plateau)”, the EC50 was 550 nM.
